Experimental vapor pressure values from OPERA 2.9

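The numbers are reported measurements, compiled and curated for the OPERA QSAR suite. A listed value is a point estimate from one report or more. Method and conditions are not stated for these values. A value may pool stereoisomers or salt forms, and the file does not say which form was measured. Some entries may be limits or estimates that an upstream database listed as plain numbers.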

Vapor pressures (log10 mmHg) refer to near room temperature, 15 to 30 °C; higher is more volatile. The databases behind each value are named after "via".

| SMILES | log VP (log10 mmHg) | via |
|---|---|---|
| FC(F)(F)C(F)(C(F)(F)F)C(F)(C(F)(F)F)C(F)(F)F | 2.285 | ICF |
| N#CCCCCCCC#N | -3.286 | eChemPortal |
| CCNC1CCCCC1 | 0.263 | eChemPortal |
| Clc1ccc(C(Cl)(Cl)Cl)c(Cl)c1 | -2.824 | eChemPortal |
| CC(C)CC(=O)Cl | 1.242 | eChemPortal |
| Clc1cccc(-c2ccc(Cl)cc2Cl)c1 | -3.625 | OCHEM |
| CCOC(OCC)c1ccc2c(c1)OCO2 | -2.522 | eChemPortal |
| CC(C)(O)C(Cl)(Cl)Cl | 1.085 | eChemPortal |
| Clc1cc(Cl)c(-c2c(Cl)c(Cl)c(Cl)c(Cl)c2Cl)c(Cl)c1 | -5.585 | OCHEM |
| Clc1cccc(-c2c(Cl)cccc2Cl)c1 | -3.315 | OCHEM |
| CCCCOCCOP(=O)(OCCOCCCC)OCCOCCCC | -6.844 | eChemPortal |
| C=C(C)C(=O)OCC(CC)CCCC (centres undefined) | -1.312 | eChemPortal |
| CCSC(=O)Cl | 2.045 | PubChem |
| Clc1cc(Cl)c(Cl)c(-c2c(Cl)cccc2Cl)c1 | -4.265 | OCHEM |
| Brc1c(Br)c(Br)c(Br)c(Br)c1Br | -5.249 | OCHEM |
| Nc1ccc(Cc2ccc(N)cc2)cc1 | -6.759 | eChemPortal |
| Clc1ccccc1C(Cl)Cl | -1.28 | eChemPortal |
| CCC(Cl)[N+](=O)[O-] (centres undefined) | 0.763 | PubChem |
| CC(C)(C)[C@@H](O)[C@@H](Cc1ccc(Cl)cc1Cl)n1cncn1 | -7.693 | OCHEM |
| CCCCN(CC)N=O | -1.06 | PubChem |
| CC(C)(Cl)[N+](=O)[O-] | 1.139 | PubChem |
| Nc1ccc(Cl)cc1[N+](=O)[O-] | -3.314 | PubChem |
| O=NN1CCCCC1 | -1.036 | PubChem |
| NP(N)(=O)Oc1ccccc1 | -4.98 | eChemPortal |
| c1cncc([C@@H]2CCCCN2)c1 | -2.523 | OCHEM |
| Clc1cc2oc3c(Cl)c(Cl)c(Cl)c(Cl)c3c2c(Cl)c1Cl | -8.005 | OCHEM |
| C1CC(N2CCOCC2)CCN1 | -2.326 | eChemPortal |
| CN1[C@@H]2C[C@@H](OC(=O)[C@H](CO)c3ccccc3)C[C@H]1[C@@H]1O[C@@H]12 | -6.813 | eChemPortal |
| Oc1c(Br)c(Br)c(Br)c(Br)c1Br | -6.426 | PubChem |
| Clc1cccc(-c2c(Cl)ccc(Cl)c2Cl)c1Cl | -4.315 | OCHEM |
| O=C(Cl)CCCl | 0.529 | eChemPortal |
| Cc1ccc(N)cc1Cl | -1.071 | PubChem |
| Clc1ccc(C(Cl)Cl)cc1 | -1.313 | eChemPortal |
| CC(Oc1ccc(Oc2cnc3cc(Cl)ccc3n2)cc1)C(=O)O (centres undefined) | -2.187 | OCHEM |
| CCCCCCCCCC[N+](C)(C)CCCCCCCCCC.CCCCCCCCCC[N+](C)(C)CCCCCCCCCC.CCCCCCCCCC[N+](C)(C)CCCCCCCCCC.O=C([O-])O.O=C([O-])[O-] | -4.238 | eChemPortal |
| CN(C)C1CSSSC1.O=C(O)C(=O)O | -5.388 | OCHEM |
| CCc1cccc(CC)c1N(COC)C(=O)CCl | -4.658 | OCHEM, PubChem |
| N#C/N=C1\SCCN1Cc1ccc(Cl)nc1 | -11.22 | PubChem |
| Clc1cc(Cl)c(-c2c(Cl)cc(Cl)c(Cl)c2Cl)c(Cl)c1Cl | -5.295 | OCHEM |
| CC(C)CCON=O | 1.419 | PubChem |
| C[C@@H](Oc1ccc(Oc2ccc(C(F)(F)F)cn2)cc1)C(=O)O | -8.227 | eChemPortal |
| C/C=C/C1C(C(=O)OCc2c(F)c(F)c(COC)c(F)c2F)C1(C)C (stereo partly drawn) | -5.149 | OCHEM |

Excerpt, the opening 4 entries:

| SMILES | log VP (log10 mmHg) | via |
|---|---|---|
| FC(F)(F)C(F)(C(F)(F)F)C(F)(C(F)(F)F)C(F)(F)F | 2.285 | ICF |
| N#CCCCCCCC#N | -3.286 | eChemPortal |
| CCNC1CCCCC1 | 0.263 | eChemPortal |
| Clc1ccc(C(Cl)(Cl)Cl)c(Cl)c1 | -2.824 | eChemPortal |

Source: data files of OPERA 2.9 (Mansouri et al.), github.com/kmansouri/OPERA.